# Reference: patent EP4821512A1, “RADIOLABELED COLLAGEN HYBRIDIZING PEPTIDE AND PREPARATION METHOD THEREFOR AND USE THEREOF” (dated 2026)
# Experiments:
# [1] = Chemical stability during radiolabeling (radio-HPLC of labeled reaction solution versus probe precursor); conditions: 50 nmol precursor
# Excerpt: In nuclide labeling reaction systems, only a trace amount of nuclide is present (for example, 666 MBq of ^68Ga is only 0.00648 nmol; 2.5 GBq of ^18F is only 0.03944 nmol). Consequently, the precursor (50 nmol) added in each reaction is in vast excess compared to the nuclide atoms. Therefore, if the probe molecular structure remains stable during the radiolabeling process, a sufficient amount of precursor molecules should remain in the reaction solution after labeling. This test example performed radio-HPLC analysis on the reaction solutions after radiolabeling for the different probes prepared in Examples 5-7 and Comparative Examples 4 and 6, and compared the resulting profiles with the HPLC profiles of their corresponding probe precursors to determine stability.
# denatured collagen [2] = experiment: Biodistribution by 1 h PET/CT, CFPAC-1 subcutaneous tumor-bearing mice and normal mice; conditions: for uptake in non-target organs (liver, kidneys etc.): subcutaneous tumor-bearing mice (Al^18F-NOTA2 probe: also normal mice); for uptake in non-target organs (liver, kidneys etc.) / signal-to-noise ratio at the tumor site / tumor signal: approx. 8.42 MBq tail vein
# Experimental: In order to intuitively evaluate the in vivo targeting specificity for denatured collagen and the in vivo biodistribution effects of the various constructed CHP-PET probes, this test example used the human pancreatic cancer cell line CFPAC-1 to construct a mouse subcutaneous tumor model. Subsequently, approximately 8.42 MBq of the collagen hybridizing peptide probes prepared in the above Examples 5-7 and Comparative Examples 3-6 were injected via the tail vein, and PET-CT imaging was performed at designated times.
# The specific construction method for the mouse subcutaneous tumor model was as follows: 3 × 10^6 CFPAC-1 cells were injected into the right shoulder/back of 6-week-old female Balb/c-nu nude mice, and subsequent experiments were conducted when the subcutaneous tumors reached 200 mm^3.
# denatured collagen [3] = experiment: 1 h dynamic PET-CT and ex vivo biodistribution, CFPAC-1 subcutaneous tumor model; conditions: subcutaneous CFPAC-1 tumor, approx. 8.42 MBq tail vein
# Experimental: In this test example, ^68Ga-Cy3-CHP prepared in Example 1 was used as a sample to evaluate the in vivo targeting specificity of the radiolabeled CHP-PET probe constructed in the present disclosure toward denatured collagen. The specific methods were as follows: First, a mouse subcutaneous tumor model was constructed using the human pancreatic cancer cell line CFPAC-1 (3×10^6 CFPAC-1 cells were injected into the right shoulder/back of 6-week-old female Balb/c-nu nude mice; experiments were conducted when the subcutaneous tumors reached 200 mm^3). The mice were divided into three groups. In two of the groups, the subcutaneous tumor-bearing mice were injected via the tail vein with approximately 8.42 MBq of either the denatured collagen-targeting probe ^68Ga-Cy3-CHP or the non-targeting probe ^68Ga-Cy3-^SCHP (the probe prepared in Comparative Example 1). Another group of mice was pre-injected with a blocking dose of the non-radiolabeled precursor probe NOTA-Cy3-CHP before being injected with ^68Ga-Cy3-CHP (blocking group). Dynamic PET-CT imaging was performed for 1 h.
# To verify the PET imaging results, the mice were euthanized after the 1 h dynamic PET imaging, and the tumors were harvested for ex vivo biodistribution analysis, calculated as a percentage of the injected dose per gram (% ID/g).
# [4] = test system: PDAC lesions in the KPC model; experiment: Static PET, ex vivo PET and biodistribution for PDAC lesions in the transgenic KPC model; conditions: KPC mice >16 weeks, approx. 10 MBq tail vein
# Excerpt: Since the probes target the ECM, there are significant differences between the tumor ECM induced after injecting human tumor cells, whether in subcutaneous or orthotopic tumor models, and the real tumor ECM. […] The probes prepared in the examples of the present disclosure were used to detect PDAC lesions in the KPC model (>16 weeks of age) to further screen for preferred targeting probes.
# The specific experimental method was as follows: KPC mice and normal mice of the same age were taken, and approximately 10 MBq of ^68Ga-Cy5-CHP was injected into the tail vein of the mice, respectively. Static scans were performed for 2 h. After the static scans, the mice were sacrificed, the pancreas was harvested for ex vivo PET, and the radioactive biodistribution of all organs was determined.
# In order to adjust the biodistribution of radionuclide-labeled molecular probes and thereby improve the in vivo imaging effect of pancreatic tumors, in this section, ^68Ga-Cy5-CHP was improved by using another metal nuclide, ^64Cu, i.e., ^64Cu-Cy5-CHP prepared in the above Example 3 was used for further detection. The specific method was as follows: Approximately 10 MBq of ^64Cu-Cy5-CHP was injected into the tail vein of KPC mice (>16 weeks of age) and normal mice of the same age. Static scans were performed at multiple time points of 2 h, 4 h, 6 h, and 8 h. After 8 h, the pancreas was harvested for ex vivo PET.
# In this section, the nuclide was changed to Al^18F, i.e., the Al^18F-Cy5-CHP probe prepared in Example 4 was used for in vivo imaging of pancreatic tumors. The specific method was as follows: approximately 10 MBq of Al^18F-Cy5-CHP was injected into the tail vein of KPC mice (>16 weeks of age) and normal mice of the same age, and a 3 h static scan was performed.
# [5] = test system: denatured collagen in orthotopic abdominal pancreatic tumors; experiment: 2 h static PET-CT and ex vivo PET, CFPAC-1-LUC orthotopic pancreatic tumor model; conditions: for in vivo PET signal in pancreas / visualization of pancreatic tumors: orthotopic tumor-bearing mice
# Excerpt: One reason PDAC is difficult to detect is its deep anatomical location. Therefore, this test example utilized an orthotopic tumor model using ^68Ga-Cy5-CHP prepared in Example 2 and ^68Ga-Cy5-^SCHP prepared in Comparative Example 2 as samples to evaluate the capability of the radiolabeled CHP-PET probe constructed in the present disclosure for in vivo detection of orthotopic pancreatic tumors in deep anatomical locations. The specific process included the following: An orthotopic model was constructed by injecting 1x10^6 human pancreatic cancer cells (CFPAC-1-LUC) into the tail of the pancreas of 6-week-old female Balb/c-nu nude mice, and the success of the model was confirmed via bioluminescence (as specifically shown in FIG. 6). Normal mice of the same age were injected via the tail vein with approximately 8.42 MBq of ^68Ga-Cy5-CHP; orthotopic tumor-bearing mice were injected via the tail vein with approximately 8.42 MBq of ^68Ga-Cy5-^SCHP (the probe from Comparative Example 2); and another group of mice was pre-injected with a blocking dose of the non-radiolabeled precursor probe NOTA-Cy5-CHP followed by the injection of ^68Ga-Cy5-CHP (blocking group). Static PET-CT imaging was performed for 2 h.
# In contrast, no signal is observed in the pancreas of normal mice, or in model mice using the scrambled probe or the blocking group (as shown in FIG. 7A). After the static scan, the mice were sacrificed, and the pancreas was harvested for ex vivo PET imaging.
# Furthermore, since the orthotopic tumor model involves planting the tumor in the tail region of the pancreas, the harvested pancreas was divided into two parts: the pancreatic tail (tumor) and the pancreatic head. The radioactive uptake of both parts and the ratio of pancreatic tail to pancreatic head were calculated.
# denatured collagen [6] = experiment: PET/CT of bleomycin-induced pulmonary fibrosis mouse model; conditions: for accumulation in lungs of BM-treated mice (PET): day 28 after bleomycin 5.0 mg/kg, approx. 9.67 MBq i.v.
# Experimental: To further verify the disease detection versatility of the CHP-PET probe, this test example used a bleomycin-induced pulmonary fibrosis mouse model to explore the potential of the CHP-PET probe for detecting pulmonary fibrosis. The specific method was as follows: Bleomycin (BM) was dissolved in PBS and administered in a single dose of 5.0 mg/kg to each male C57BL/6J mouse (6-8 weeks old); and the control group received no treatment. After bleomycin inhalation, the animals were rotated up and down to distribute the drug solution evenly throughout the lungs. […] The mice were placed in cages and, after their breathing stabilized, returned to the SPF-grade animal room for rearing. On day 28 after drug-induced pulmonary fibrosis, mice were intravenously injected with approximately 9.67 MBq of ^68Ga-Cy5-CHP or ^68Ga-Cy5-^SCHP.
# Immediately after the PET/CT scan, the lungs were collected and subjected to radioactivity measurement. Subsequently, PET-CT imaging was performed for the 7-day inflammatory stage after drug induction. […] It can be seen that ^68Ga-Cy5-CHP can detect lung lesions in vivo and has the potential for non-invasive detection of early pulmonary fibrosis.
# [7] = subcutaneous tumor-bearing mice, 1 h PET/CT
# [8] = approx. 8.42 MBq tail vein, 2 h static PET-CT
substance,measurement,setting,value
Al^18F-NODAGA-Ahx-(GfO)9,structural stability during radiolabeling,"[1]; Al^18F labeling, 110 °C 30 min","very stable during the Al^18F labeling process, with only one radioactive peak"
Al^18F-NOTA2-Ahx-(GfO)9,structural stability during radiolabeling,"[1]; Al^18F labeling, 110 °C 30 min",stable during the Al^18F labeling process and does not undergo radiation degradation
same,"uptake in non-target organs (liver, kidneys etc.)",denatured collagen [2]; 1 h PET/CT,extremely low signals in important non-target organs such as the liver and heart
same,signal-to-noise ratio at the tumor site,denatured collagen [2]; [7],excellent tumor signal-to-noise ratio
Al^18F-NOTA-Ahx-(GfO)9,structural stability during radiolabeling,"[1]; Al^18F labeling, 110 °C 30 min",unstable during the Al^18F labeling process and undergo radiation decomposition
same,"uptake in non-target organs (liver, kidneys etc.)",denatured collagen [2]; 1 h PET/CT,"extremely strong uptake in the liver, kidneys, etc."
same,tumor signal,denatured collagen [2]; [7],signal accumulation in subcutaneous tumors
Cy3-Ahx-K(NOTA-^68Ga)-K(NH2)-Ahx-^S(GfO)9,tumor PET signal during 1 h dynamic imaging,denatured collagen [3],rapid clearance
same,tumor visibility on PET images,denatured collagen [3]; 30 min and 60 min of 1 h dynamic PET,tumors are not observable
Cy5-Ahx-K(NOTA-^64Cu)-K(NH2)-Ahx-(GfO)9,ex vivo PET: probe at tumor site,[4]; pancreas harvested after 8 h,enriched at the tumor site
same,in vivo visualization of PDAC,"[4]; static scans at 2 h, 4 h, 6 h and 8 h",the strong signal from the abdominal intestines interferes with the in vivo visualization of PDAC
Cy5-Ahx-K(NOTA-^68Ga)-Ahx-(GfO)9,"uptake in non-target organs (liver, kidneys etc.)",denatured collagen [2]; 1 h PET/CT,"extremely strong uptake in the liver, kidneys, etc."
same,uptake in the heart,denatured collagen [2]; [7],strong uptake in non-target organs such as the heart
same,tumor signal,denatured collagen [2]; [7],tumor signal almost invisible
Cy5-Ahx-K(NOTA-^68Ga)-K(NH2)-Ahx-(GfO)9,radioactive uptake in the pancreatic tail tumor site,"[5]; harvested pancreas divided into pancreatic tail (tumor) and pancreatic head, after imaging",significantly high uptake
same,"in vivo PET signal in pancreas, blocking group","[5]; model mice pre-injected with a blocking dose of NOTA-Cy5-CHP, 2 h static PET-CT",no signal is observed
same,in vivo PET signal in pancreas,"[5]; normal mice of the same age, approx. 8.42 MBq tail vein, 2 h static PET-CT",no signal is observed
same,in vivo PET signal in pancreas / visualization of pancreatic tumors,[5]; [8],allows for in vivo visualization of pancreatic tumors
same,in vivo visualization of PDAC,[4]; 2 h static PET scan,"affected by organs around the pancreas such as the liver, spleen, and kidneys, which to some extent interferes with the in vivo visualization of PDAC"
same,ex vivo PET and organ biodistribution: probe at tumor site,[4]; after 2 h static scan,significant enrichment of the probe at the tumor site of the KPC mice
same,"uptake in the lungs, inflammatory stage","denatured collagen [6]; 7 days after bleomycin, versus normal control",significantly higher than that of the normal control
same,accumulation in lungs of BM-treated mice (PET),denatured collagen [6]; 2 hours post-injection,specifically accumulates in the fibrotic lungs of BM-treated mice at 28 days
same,accumulation in lungs of control mice (PET),"denatured collagen [6]; untreated control mice, 2 hours post-injection",not in the healthy lungs of control mice
same,"uptake in non-target organs (liver, kidneys etc.)",denatured collagen [2]; 1 h PET/CT,"strong signals are detected in the liver, kidney, and pancreatic positions, especially in the kidneys"
Cy5-Ahx-K(NOTA-^68Ga)-K(NH2)-Ahx-^S(GfO)9,in vivo PET signal in pancreas / visualization of pancreatic tumors,[5]; [8],no signal is observed
same,accumulation in lungs of BM-treated mice (PET),denatured collagen [6]; 2 hours post-injection,does not preferentially enter the lungs of BM-treated mice
^68Ga-NODAGA-Ahx-(GfO)9,structural stability during radiolabeling,[1]; ^68Ga labeling,good stability and does not undergo radiation degradation
same,excretion,denatured collagen [2]; 1 h imaging after tail vein injection,most of the probe have already been excreted from the kidneys into the bladder
same,"uptake in non-target organs (liver, kidneys etc.)",denatured collagen [2]; 1 h PET/CT,low
same,signal-to-noise ratio at the tumor site,denatured collagen [2]; [7],high signal-to-noise ratio at the tumor site
same,tumor signal,denatured collagen [2]; [7],significant signals in the subcutaneous tumor target organs
